This data set is described as follows: Solubility of hydro-colloid and chitosan. In kind it is physicochemical. The method, then:
Test solution: An adequate sample of Chitosan HCl, Chitosan-HAc, Chitosan, Chitosan-Valeric acid-Hydro Colloid and valeric acid, respectively was dissolved in the solvent above. This mixture was shacked and afterwards sonified in an ultrasonic bath for 5 min.
Sample: Chitosan suspended in water
Result: An acceptable solution of Chitosan in waterish or organic solvents like Methanol etc. is not possible. A suitable solubilization of Chitosan is only possible in stronger acids like HCl or HAc under production of Chitosan HCl or Chitosan HAc.

With Chitosan-Valeric acid-Hydro-Colloid, the Solubility in water result is listed as “soluble in: Water”.

(Values after patent publication US11173193B2, “Immunobiological products” (priority 2016, dated 2021).)
